{"source": "patent US4628047A", "about": "(priority 1982, dated 1986)", "test_system": "Hodgkin's disease (nodular sclerosis)", "settings": "diltiazem 180 mg per day, divided in three, 4 days"}
{"smiles": "COc1ccc([C@@H]2Sc3ccccc3N(CCN(C)C)C(=O)[C@@H]2OC(C)=O)cc1", "note": "[Diltiazem, d-3-acetoxy-cis-2,3-dihydro-5-[2-(dimethylamino)ethyl]-2-(p-methoxyphenyl)-1,5-benzothiazepin-4(5H)-one]", "values": [{"measurement": "reduction of the re-enlarged lymphadenoma", "value": "it was reduced"}]}
